# Reported water solubility values for industrial, environmental and drug-like chemicals

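The numbers are reported measurements, compiled and curated for the OPERA QSAR suite. One number stands for a compound and property, with no spread given. Method, purity and exact conditions of the single measurements are not given. A value may pool stereoisomers or salt forms, and the file does not say which form was measured. Some upstream entries may be estimates or bounds without being marked so.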

Water solubility is log10 of mol/L, nominally at 25 °C; higher is more soluble.

structure (SMILES) | log solubility (log10 mol/L)
O=C(OCC(=O)N(CCO)CCO)c1ccccc1 | 0.43
CC(CCC(C)C(=O)O)C(=O)O (stereo not drawn) | -0.415
CCCCCCCCC(=O)N(C)C | -2.144
NNC(=O)Nc1ccccc1 | -2.33
CN(Cc1cnc2nc(N)nc(N)c2n1)c1ccc(C(=O)N[C@@H](CCC(=O)O)C(=O)O)cc1 | -3.424
CCN(c1ccccc1)S(=O)(=O)c1ccccc1/N=N/C1C(=O)N(c2cc(Cl)c(S(=O)(=O)[O-])cc2Cl)N=C1C.[Na+] (stereo partly drawn) | -2.43
CCOC(=O)C1=C(COCCN2C(=O)c3ccccc3C2=O)NC(C)=C(C(=O)OC)C1c1ccccc1Cl (stereo not drawn) | -4.501
Clc1cc(Cl)c(Oc2c(Cl)ccc(Cl)c2Cl)cc1Cl | -7.88
CCN(CCOc1ccc(C2CCCCC2)cc1)c1ccc(C=C(C#N)C#N)c(C)c1 | -8.771
Cc1[nH]n(-c2ccccc2)c(=O)c1N=Nc1ccccc1 | -7.541
CCCCCOC=O | -1.504
NS(=O)(=O)c1ccccc1C(F)(F)F | -2.79
Nc1c(Oc2ccccc2)cc(O)c2c1C(=O)c1ccccc1C2=O | -8.71
CCCCCC1CCC(=O)CC1 | -3.185
O=C(OC[C@@H]1CO[C@](CBr)(c2ccc(Cl)cc2Cl)O1)c1ccccc1 | -7.57
Nc1ccc(S(=O)(=O)O)c2ccccc12 | -2.857
OCC(CO)N[C@H]1C[C@](O)(CO)[C@@H](O)[C@H](O)[C@H]1O | -0.148
CCCCCCCC[N+](C)(CCCCCCCC)CCCCCCCC.[Cl-] | -4.283
CCOC(=O)[C@@]12CCC[C@@H]1[C@@H]1CC[C@H]2C1 (relative stereo) | -3.762
CCC(=O)OC(OP(=O)(CCCCc1ccccc1)CC(=O)N1C[C@H](C2CCCCC2)C[C@H]1C(=O)O)C(C)C (some centres not stated) | -5.747
CCCc1nc2c(C)cc(-c3nc4ccccc4n3C)cc2[nH]1 | -4.813
CCC(COC(=O)CCS)(COC(=O)CCS)COC(=O)CCS | -3.095
CC(C)C[C@H](NC(=O)[C@H](Cc1ccccc1)NC(=O)c1cnccn1)B(O)O | -3.859
COC(=O)Oc1ccc(C)cc1OC | -2.718
Cc1ccccc1NC(=O)c1cc2ccccc2cc1O | -4.623
Cc1cc(O)ccc1Br | -2.041
Cc1ccc(N=Nc2c(O)ccc3ccccc23)c(C)c1 | -6.705
C[C@@H]1[C@@H](CN)C[C@H]2C[C@@H]1C2(C)C | -2.516
CC[C@@H]([C@H](C)OCc1ccccc1)N(N)C(=O)Nc1ccc(N2CCN(c3ccc(OC[C@@H]4CO[C@@](Cn5cncn5)(c5ccc(F)cc5F)C4)cc3)CC2)cc1 | -7.236
CCN(CCCc1ccccc1)CCCc1ccccc1 | -5.467
NC(=O)C(=O)N/N=C/C=C/c1ccc([N+](=O)[O-])o1 | -4.8
C/C=C\c1ccc(OCc2ccccc2)c(OC)c1 | -5.579
C[Si](C)(c1ccccc1)[C@@H]1CC=C(CO)[C@H]1C(=O)O[C@@](O)(c1ccc([N+](=O)[O-])cc1)[C@@H](N)CO | -4.638
O=C1c2c(Cl)c(Cl)c(Cl)c(Cl)c2C2=Nc3cccc4cccc(c34)N12 | -7.134
CC(C)C(=O)OCC(=O)[C@@]12O[C@H](C3CCCCC3)O[C@@H]1C[C@H]1[C@@H]3CCC4=CC(=O)C=C[C@]4(C)[C@H]3[C@@H](O)C[C@@]12C | -5.537
CCC(C)c1cc(C(C)(C)C)c(O)c(C(C)(C)C)c1 (stereo not drawn) | -6.308
C/C=C/C(=O)Oc1c(C(C)CCCCCC)cc([N+](=O)[O-])cc1[N+](=O)[O-] (stereo partly drawn) | -6.17
CCC(C)(CC(=O)O)C(=O)O (stereo not drawn) | -0.017
C[C@H](CCC[C@H](C)C(=O)O)C(=O)O | -0.932
C=C(C)C(=O)OCCCCCCCCCCOC(=O)C(=C)C | -6.35
Cc1ccnc2ccccc12 | -2.262
CC(CCO)CC(C)(C)C (stereo not drawn) | -2.557
CC(CCO)CC1=CCCCC1 (stereo not drawn) | -2.755
O=C1CCN(c2ccccc2)N1 | -1.797
CCCc1ccc(-c2ccc(B(O)O)c(F)c2)cc1 | -6.048
C=C(C)C(=O)OCCOCCOC | -3.481
O=C(O)c1cc(C(=O)O)cc([N+](=O)[O-])c1 | -2.178
Clc1cc(Cl)c2nsnc2c1Cl | -4.98
C/C=C/C(=O)C1=C(C)CCCC1(C)C | -2.996
CCCCCCCCCCCCCC(=O)N(C)CC(=O)O | -2.522
CC(C)(C(=O)O)c1ccc(C#CCCN2CCC(C(O)(c3ccccc3)c3ccccc3)CC2)cc1 | -4.179
NCCC(O)(P(=O)(O)O)P(=O)(O)O | -1.173
O=C(O[C@H]1CO[C@H]2[C@@H]1OC[C@H]2OC(=O)c1ccc(O)cc1)c1ccc(O)cc1 | -4.132
C/C(=N/NC(=O)c1ccncc1)C(=O)O | -3.316

The 8 lowest values of log solubility among the entries above:

| structure (SMILES) | log solubility (log10 mol/L) |
|---|---|
| CCN(CCOc1ccc(C2CCCCC2)cc1)c1ccc(C=C(C#N)C#N)c(C)c1 | -8.771 |
| Nc1c(Oc2ccccc2)cc(O)c2c1C(=O)c1ccccc1C2=O | -8.71 |
| Clc1cc(Cl)c(Oc2c(Cl)ccc(Cl)c2Cl)cc1Cl | -7.88 |
| O=C(OC[C@@H]1CO[C@](CBr)(c2ccc(Cl)cc2Cl)O1)c1ccccc1 | -7.57 |
| Cc1[nH]n(-c2ccccc2)c(=O)c1N=Nc1ccccc1 | -7.541 |
| CC[C@@H]([C@H](C)OCc1ccccc1)N(N)C(=O)Nc1ccc(N2CCN(c3ccc(OC[C@@H]4CO[C@@](Cn5cncn5)(c5ccc(F)cc5F)C4)cc3)CC2)cc1 | -7.236 |
| O=C1c2c(Cl)c(Cl)c(Cl)c(Cl)c2C2=Nc3cccc4cccc(c34)N12 | -7.134 |
| Cc1ccc(N=Nc2c(O)ccc3ccccc23)c(C)c1 | -6.705 |

Source: data files of OPERA 2.9 (Mansouri et al.), github.com/kmansouri/OPERA.